From PubChem BioAssay AID2073 (Sanford-Burnham Center for Chemical Genomics, 2009)
The list shows a part of the results, in another mix than the full data. Entries with a potency or affinity are not part of this list. Some tests of the compounds listed are not included; inactive here does not mean inactive elsewhere. Activity calls are given as the source filed them. No stated cut-off is given here; in the data, active means inhibition mostly above about 51% (no sharp cut-off); inconclusive means no clear call, values can overlap the other calls; inactive means mostly below about 53%.

Protein sequences, listed by entry. Tags and fused reporters are not part of them.
UniProt Q00975, whole entry: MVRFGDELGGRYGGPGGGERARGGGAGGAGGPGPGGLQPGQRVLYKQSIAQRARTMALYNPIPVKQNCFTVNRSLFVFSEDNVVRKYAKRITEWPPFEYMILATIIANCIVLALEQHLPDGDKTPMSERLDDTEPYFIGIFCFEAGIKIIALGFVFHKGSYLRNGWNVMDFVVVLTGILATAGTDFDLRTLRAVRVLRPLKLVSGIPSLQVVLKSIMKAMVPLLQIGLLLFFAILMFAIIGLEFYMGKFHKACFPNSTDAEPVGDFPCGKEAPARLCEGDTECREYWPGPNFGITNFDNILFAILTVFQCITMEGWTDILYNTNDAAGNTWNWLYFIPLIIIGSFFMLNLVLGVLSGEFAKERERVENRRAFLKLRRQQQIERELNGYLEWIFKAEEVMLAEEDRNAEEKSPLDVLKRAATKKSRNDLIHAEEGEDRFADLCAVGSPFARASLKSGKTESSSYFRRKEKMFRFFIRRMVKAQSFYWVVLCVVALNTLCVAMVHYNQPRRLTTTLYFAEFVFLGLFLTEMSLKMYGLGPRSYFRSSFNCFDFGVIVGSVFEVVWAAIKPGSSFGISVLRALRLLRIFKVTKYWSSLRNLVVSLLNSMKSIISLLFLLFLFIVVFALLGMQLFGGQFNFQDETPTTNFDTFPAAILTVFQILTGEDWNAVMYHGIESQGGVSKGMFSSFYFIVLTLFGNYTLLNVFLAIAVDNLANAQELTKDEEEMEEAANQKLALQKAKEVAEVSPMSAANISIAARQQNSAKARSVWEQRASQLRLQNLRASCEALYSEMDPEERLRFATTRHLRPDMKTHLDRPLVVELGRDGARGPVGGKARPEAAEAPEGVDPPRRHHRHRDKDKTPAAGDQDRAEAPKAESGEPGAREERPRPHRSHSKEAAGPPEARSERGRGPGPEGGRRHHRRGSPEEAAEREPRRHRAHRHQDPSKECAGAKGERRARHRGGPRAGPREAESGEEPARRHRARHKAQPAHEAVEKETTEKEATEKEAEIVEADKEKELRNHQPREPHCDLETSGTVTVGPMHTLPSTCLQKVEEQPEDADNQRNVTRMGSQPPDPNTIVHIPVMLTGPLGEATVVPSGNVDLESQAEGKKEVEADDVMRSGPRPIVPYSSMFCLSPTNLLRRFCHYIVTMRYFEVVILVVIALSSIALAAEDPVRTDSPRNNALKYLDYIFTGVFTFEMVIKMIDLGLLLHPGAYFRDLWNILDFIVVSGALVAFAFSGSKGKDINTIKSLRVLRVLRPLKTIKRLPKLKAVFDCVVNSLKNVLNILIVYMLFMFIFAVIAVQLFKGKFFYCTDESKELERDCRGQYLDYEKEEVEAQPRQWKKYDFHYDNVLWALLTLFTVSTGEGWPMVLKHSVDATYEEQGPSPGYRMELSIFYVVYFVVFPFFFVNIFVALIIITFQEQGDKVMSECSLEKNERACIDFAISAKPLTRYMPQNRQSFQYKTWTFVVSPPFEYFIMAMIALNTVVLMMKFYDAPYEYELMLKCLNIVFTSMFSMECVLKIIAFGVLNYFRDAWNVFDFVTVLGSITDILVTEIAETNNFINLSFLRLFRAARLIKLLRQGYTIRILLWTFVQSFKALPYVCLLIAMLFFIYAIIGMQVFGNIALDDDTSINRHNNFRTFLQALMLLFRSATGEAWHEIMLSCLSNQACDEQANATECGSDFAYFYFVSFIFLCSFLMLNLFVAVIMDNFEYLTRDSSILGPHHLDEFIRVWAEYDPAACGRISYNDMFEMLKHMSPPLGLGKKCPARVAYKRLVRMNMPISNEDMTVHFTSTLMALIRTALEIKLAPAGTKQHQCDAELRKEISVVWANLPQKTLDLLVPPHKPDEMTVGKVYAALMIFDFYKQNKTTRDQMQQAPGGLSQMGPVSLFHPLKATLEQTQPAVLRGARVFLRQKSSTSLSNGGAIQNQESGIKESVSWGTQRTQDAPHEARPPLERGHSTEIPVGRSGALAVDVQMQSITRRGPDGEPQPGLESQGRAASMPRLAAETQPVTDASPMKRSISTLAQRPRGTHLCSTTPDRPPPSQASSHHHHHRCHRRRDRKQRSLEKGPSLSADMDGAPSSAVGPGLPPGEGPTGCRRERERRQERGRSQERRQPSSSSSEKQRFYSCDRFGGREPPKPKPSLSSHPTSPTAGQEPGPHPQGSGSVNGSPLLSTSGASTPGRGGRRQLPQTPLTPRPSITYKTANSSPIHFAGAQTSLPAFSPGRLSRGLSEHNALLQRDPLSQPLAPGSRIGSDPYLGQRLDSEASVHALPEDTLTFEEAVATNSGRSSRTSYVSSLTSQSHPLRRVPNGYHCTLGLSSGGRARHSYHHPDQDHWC

Biological target: Voltage-dependent N-type calcium channel subunit alpha-1B (Homo sapiens) (UniProt Q00975)
Assay: inhibitors of Mint1-CaV2.2 protein interaction, biochemical, HTRF (AID 2073)
Conditions: at 20 µM, active compounds read high

Compound	inhibition
O=C(NCC1(N2CCCCC2)CCCCC1)c1cccc(Cl)c1	inactive: 5.9%
COc1cccc(C(=O)NCC2(N3CCCCC3)CCCCC2)c1	inactive: -8.4%
COc1ccc(Cl)cc1C(=O)NCC1(N(C)C)CCCCC1	inactive: 22.8%
COc1cc(C(=O)NCC2(N(C)C)CCCCC2)c([N+](=O)[O-])cc1OC	inactive: 14.9%
CN(C)C1(CNC(=O)c2ccc(Br)cc2)CCCCC1	inactive: 6.9%
CN(C)c1cccc(C(=O)NCC2(N(C)C)CCCCC2)c1	inactive: 5.2%
CC(C)Oc1ccc(C(=O)NCC2(N(C)C)CCCCC2)cc1	inactive: 5.6%
COc1ccc(Br)c(C(=O)NCC2(N3CCCCC3)CCCCC2)c1	inactive: 12.8%
O=C(OC1CN2CCC1CC2)C(CO)(c1ccccc1)c1ccccc1 (centres undefined)	inactive: -2.8%
Cc1ccc(C(=O)NCC2(N3CCCCC3)CCCCC2)cc1	inactive: 14.7%
CC(C)N1C(=O)CC2(CCN(CCOC(=O)C(O)(c3ccccc3)c3ccccc3)CC2)C1=O	inactive: -3.8%
CCN(CC)CC(C)C(C)OC(=O)C(O)(c1ccccc1)c1ccccc1 (centres undefined)	inactive: 4.4%
COc1cc(SC)ccc1C(=O)NCC1(N(C)C)CCCCC1	inactive: 6.3%
CN1[C@@H]2CC[C@H]1CC(OC(=O)C(O)(c1ccccc1)c1ccccc1)C2 (some centres undefined)	inactive: 8.8%
O=C(NCC1(N2CCCCC2)CCCCC1)c1cc([N+](=O)[O-])ccc1Cl	inactive: -2.6%
Cc1cc(C(=O)NCC2(N3CCCCC3)CCCCC2)ccc1[N+](=O)[O-]	inactive: 7.5%
CCN1CCCC(OC(=O)C2(O)c3ccccc3C=Cc3ccccc32)C1 (centres undefined)	inactive: 6%
O=C(NCC1(N2CCCCC2)CCCCC1)c1cccc(Br)c1	inactive: 4.4%
COc1ccc(C(=O)NCC2(N(C)C)CCCCC2)cc1	inactive: 8.8%
C=CCN1CCN(CCOC(=O)C(O)(c2ccccc2)c2ccccc2)CC1	inactive: 2.5%
O=C(NCC1(N2CCCCC2)CCCCC1)c1cc(F)c(F)cc1Cl	inactive: 8.4%
Cc1ccccc1C(=O)NCC1(N2CCCCC2)CCCCC1	inactive: -4.9%
CN(C)C1CCCC1OC(=O)C(O)(c1ccccc1)c1ccccc1 (centres undefined)	inactive: 15.3%
CN(C)c1ccc(C(=O)NCC2(N(C)C)CCCCC2)cc1	inactive: -6%
